The record followed here is US11661431B2, “Thienopyrrole compounds” (Gilead Sciences, Inc., priority 2021, dated 2023).

Protein sequences, listed by entry. Tags and fused reporters are not part of them. Residues count along the entry.
UniProt Q9NR97, 27-1041 limits assumed: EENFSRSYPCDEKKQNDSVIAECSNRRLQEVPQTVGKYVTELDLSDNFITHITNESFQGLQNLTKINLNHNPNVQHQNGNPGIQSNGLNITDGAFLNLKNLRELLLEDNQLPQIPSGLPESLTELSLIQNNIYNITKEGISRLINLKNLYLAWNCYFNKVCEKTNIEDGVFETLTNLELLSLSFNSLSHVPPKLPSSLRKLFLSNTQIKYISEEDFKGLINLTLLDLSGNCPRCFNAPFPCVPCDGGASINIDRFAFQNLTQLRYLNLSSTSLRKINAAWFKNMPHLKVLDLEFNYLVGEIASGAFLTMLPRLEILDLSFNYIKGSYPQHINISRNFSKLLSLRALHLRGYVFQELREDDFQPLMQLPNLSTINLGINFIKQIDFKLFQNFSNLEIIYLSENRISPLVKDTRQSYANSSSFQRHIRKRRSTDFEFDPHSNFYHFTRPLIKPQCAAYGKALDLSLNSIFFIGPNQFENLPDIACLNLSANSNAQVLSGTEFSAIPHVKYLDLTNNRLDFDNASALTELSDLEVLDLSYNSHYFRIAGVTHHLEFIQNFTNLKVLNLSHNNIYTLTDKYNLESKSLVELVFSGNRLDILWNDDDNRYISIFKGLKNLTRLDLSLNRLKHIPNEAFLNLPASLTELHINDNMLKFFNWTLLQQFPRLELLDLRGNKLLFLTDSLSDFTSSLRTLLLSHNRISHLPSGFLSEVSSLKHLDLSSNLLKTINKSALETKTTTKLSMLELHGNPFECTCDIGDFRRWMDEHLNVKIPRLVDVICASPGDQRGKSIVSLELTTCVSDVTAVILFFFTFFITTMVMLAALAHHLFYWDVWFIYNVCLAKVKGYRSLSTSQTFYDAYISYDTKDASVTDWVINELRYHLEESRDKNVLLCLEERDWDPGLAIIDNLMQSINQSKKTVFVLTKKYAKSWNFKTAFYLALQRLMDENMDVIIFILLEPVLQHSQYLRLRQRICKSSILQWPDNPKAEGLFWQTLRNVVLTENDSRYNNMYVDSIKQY
UniProt Q9NYK1, 27-1049 limits assumed: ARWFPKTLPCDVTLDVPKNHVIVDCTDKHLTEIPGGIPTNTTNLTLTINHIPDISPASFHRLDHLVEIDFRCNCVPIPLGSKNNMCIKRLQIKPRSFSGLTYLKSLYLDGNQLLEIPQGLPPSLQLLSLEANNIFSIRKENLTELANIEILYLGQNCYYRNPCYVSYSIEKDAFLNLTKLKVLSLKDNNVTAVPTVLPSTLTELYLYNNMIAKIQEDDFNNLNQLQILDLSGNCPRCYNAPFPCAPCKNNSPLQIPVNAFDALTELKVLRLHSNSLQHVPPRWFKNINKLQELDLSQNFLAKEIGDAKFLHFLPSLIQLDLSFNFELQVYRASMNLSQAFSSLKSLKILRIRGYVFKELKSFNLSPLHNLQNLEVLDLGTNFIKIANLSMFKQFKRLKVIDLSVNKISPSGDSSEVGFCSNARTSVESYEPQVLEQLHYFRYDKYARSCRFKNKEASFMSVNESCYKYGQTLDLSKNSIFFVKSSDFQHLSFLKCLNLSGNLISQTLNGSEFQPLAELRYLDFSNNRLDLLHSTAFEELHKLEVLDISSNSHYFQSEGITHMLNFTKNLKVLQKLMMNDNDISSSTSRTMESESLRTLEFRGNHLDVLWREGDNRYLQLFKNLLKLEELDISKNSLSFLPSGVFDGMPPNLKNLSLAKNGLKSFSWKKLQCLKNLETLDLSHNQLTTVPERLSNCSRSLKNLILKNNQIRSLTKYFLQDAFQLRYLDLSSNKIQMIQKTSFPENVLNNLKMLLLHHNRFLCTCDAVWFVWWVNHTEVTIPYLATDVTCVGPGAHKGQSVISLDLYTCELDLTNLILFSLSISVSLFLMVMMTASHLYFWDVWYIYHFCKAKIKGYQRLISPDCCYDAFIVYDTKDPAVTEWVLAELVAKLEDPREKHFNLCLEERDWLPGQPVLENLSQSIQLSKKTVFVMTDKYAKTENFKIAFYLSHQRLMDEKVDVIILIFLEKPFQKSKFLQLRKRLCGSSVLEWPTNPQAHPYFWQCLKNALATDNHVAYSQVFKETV

In one assay the target is TLR8 (Homo sapiens (Human), UniProt Q9NR97). The assay is described as follows: TLR8 human peripheral blood mononuclear cell (PBMC) cell-based assay (Compound A as agonist; TNFα and IL12p40 readout). As to conditions: read-out: TLR-8 EC50, human PBMCs, TLR8 agonist Compound A at 800 nM, 6 hours, antagonist potency.
For another assay, the target named is TLR7 (Homo sapiens (Human), UniProt Q9NYK1). Put plainly: TLR7 human peripheral blood mononuclear cell (PBMC) cell-based assay (GS-986 as agonist; IL-6 and IFNα readout). As to conditions: read-out: TLR-7 EC50, human PBMCs, TLR7 agonist GS-986 at 400 nM, 6 hours, antagonist potency.

Structures are written as SMILES. Like-named read-outs stand apart in the source and are kept apart here.

For the molecule `Cc1cc(-c2[nH]c3sc(C4CCNCC4)c(C(F)F)c3c2C(C)C)cn2ncnc12`, the EC50 (commonly the concentration giving half of the maximal effect) at TLR8 was found to be 5.56 nM; on TLR7, 1.57 nM.

On to `Cc1c(C2CCN(CC(N)=O)CC2)sc2[nH]c(-c3ccc(C#N)c4nccnc34)c(C(C)C)c12`, for which the EC50 at TLR8 is 83.4 nM; at TLR7, 41.9 nM.

In the case of `Cc1cc(-c2[nH]c3sc(C4CCN(C(=O)[C@@H]5COCCN5)CC4)c(CO)c3c2C(C)C)cn2ncnc12`, the results for the EC50 on TLR8 (tested form: TFA) and at TLR7 (tested form: TFA) were 24.3 nM and 0.94 nM, respectively.
